# IntAct's records for PubMed 16626738
# B1: G/T mismatch-specific thymine DNA glycosylase (Homo sapiens), Q13569 (parent)
# chain: MEAENAGSYSLQQAQAFYTFPFQQLMAEAPNMAVVNEQQMPEEVPAPAPAQEPVQEAPKGRKRKPRTTEPKQPVEPKKPVESKKSGKSAKSKEKQEKITDTFKVKRKVDRFNGVSEAELLTKTLPDILTFNLDIVIIGINPGLMAAYKGHHYPGPGNHFWKCLFMSGLSEVQLNHMDDHTLPGKYGIGFTNMVERTTPGSKDLSSKEFREGGRILVQKLQKYQPRIAVFNGKCIYEIFSKEVFGVKVKNLEFGLQPHKIPDTETLCYVMPSSSARCAQFPRAQDKVHYYIKLKDLRDQLKGIERNMDVQEVQYTFDLQLAQEDAKKMAVKEEKYDPGYEAAYGGAYGENPCSSEPCGFSSNGLIESVELRGESAFSGIPNGQWMTQSFTDQIPSFSNHCGTQEQEEESHA
# Variants of: B1
# Details: with sumo2_human SUMO2
row,Variant,effect of a mutation on the interaction
1,MEAENAGSYSLQQAQAFYTFPFQQLMAEAPNMAVVNEQQMPEEVPAPAPAQEPVQEAPKGRKRKPRTTEPKQPVEPKKPVESKKSGKSAKSKEKQEKITDTFKVKRKVDRFNGVSEAELLTKTLPDILTFNLDIVIIGINPGLMAAYKGHHYPGPGNHFWKCLFMSGLSEVQLNHMDDHTLPGKYGIGFTNMVERTTPGSKDLSSKEFREGGRILVQKLQKYQPRIAVFNGKCIYEIFSKEVFGVKVKNLEFGLQPHKIPDTETLCYVMPSSSARCAQFPAAQDKVHYYIKLKDLRDQLKGIERNMDVQEVQYTFDLQLAQEDAKKMAVKEEKYDPGYEAAYGGAYGENPCSSEPCGFSSNGLIESVELRGESAFSGIPNGQWMTQSFTDQIPSFSNHCGTQEQEEESHA [R281A],disrupting interaction strength
2,MEAENAGSYSLQQAQAFYTFPFQQLMAEAPNMAVVNEQQMPEEVPAPAPAQEPVQEAPKGRKRKPRTTEPKQPVEPKKPVESKKSGKSAKSKEKQEKITDTFKVKRKVDRFNGVSEAELLTKTLPDILTFNLDIVIIGINPGLMAAYKGHHYPGPGNHFWKCLFMSGLSEVQLNHMDDHTLPGKYGIGFTNMVERTTPGSKDLSSKEFREGGRILVQKLQKYQPRIAVFNGKCIYEIFSKEVFGVKVKNLEFGLQPHKIPDTETLCYVMPSSSARCAQFPRAQDKVHYYIKLKDLRDQLKGIERNMAVQEVQYTFDLQLAQEDAKKMAVKEEKYDPGYEAAYGGAYGENPCSSEPCGFSSNGLIESVELRGESAFSGIPNGQWMTQSFTDQIPSFSNHCGTQEQEEESHA [D307A],disrupting interaction strength
3,MEAENAGSYSLQQAQAFYTFPFQQLMAEAPNMAVVNEQQMPEEVPAPAPAQEPVQEAPKGRKRKPRTTEPKQPVEPKKPVESKKSGKSAKSKEKQEKITDTFKVKRKVDRFNGVSEAELLTKTLPDILTFNLDIVIIGINPGLMAAYKGHHYPGPGNHFWKCLFMSGLSEVQLNHMDDHTLPGKYGIGFTNMVERTTPGSKDLSSKEFREGGRILVQKLQKYQPRIAVFNGKCIYEIFSKEVFGVKVKNLEFGLQPHKIPDTETLCYVMPSSSARCAQFPRAQDKVHYYIKLKDLRDQLKGIERNMDAQEVQYTFDLQLAQEDAKKMAVKEEKYDPGYEAAYGGAYGENPCSSEPCGFSSNGLIESVELRGESAFSGIPNGQWMTQSFTDQIPSFSNHCGTQEQEEESHA [V308A],disrupting interaction strength
4,MEAENAGSYSLQQAQAFYTFPFQQLMAEAPNMAVVNEQQMPEEVPAPAPAQEPVQEAPKGRKRKPRTTEPKQPVEPKKPVESKKSGKSAKSKEKQEKITDTFKVKRKVDRFNGVSEAELLTKTLPDILTFNLDIVIIGINPGLMAAYKGHHYPGPGNHFWKCLFMSGLSEVQLNHMDDHTLPGKYGIGFTNMVERTTPGSKDLSSKEFREGGRILVQKLQKYQPRIAVFNGKCIYEIFSKEVFGVKVKNLEFGLQPHKIPDTETLCYVMPSSSARCAQFPRAQDKVHYYIKLKDLRDQLKGIERNMDVAEVQYTFDLQLAQEDAKKMAVKEEKYDPGYEAAYGGAYGENPCSSEPCGFSSNGLIESVELRGESAFSGIPNGQWMTQSFTDQIPSFSNHCGTQEQEEESHA [Q309A],with no effect
5,MEAENAGSYSLQQAQAFYTFPFQQLMAEAPNMAVVNEQQMPEEVPAPAPAQEPVQEAPKGRKRKPRTTEPKQPVEPKKPVESKKSGKSAKSKEKQEKITDTFKVKRKVDRFNGVSEAELLTKTLPDILTFNLDIVIIGINPGLMAAYKGHHYPGPGNHFWKCLFMSGLSEVQLNHMDDHTLPGKYGIGFTNMVERTTPGSKDLSSKEFREGGRILVQKLQKYQPRIAVFNGKCIYEIFSKEVFGVKVKNLEFGLQPHKIPDTETLCYVMPSSSARCAQFPRAQDKVHYYIKLKDLRDQLKGIERNMDVQQVQYTFDLQLAQEDAKKMAVKEEKYDPGYEAAYGGAYGENPCSSEPCGFSSNGLIESVELRGESAFSGIPNGQWMTQSFTDQIPSFSNHCGTQEQEEESHA [E310Q],disrupting interaction strength
6,MEAENAGSYSLQQAQAFYTFPFQQLMAEAPNMAVVNEQQMPEEVPAPAPAQEPVQEAPKGRKRKPRTTEPKQPVEPKKPVESKKSGKSAKSKEKQEKITDTFKVKRKVDRFNGVSEAELLTKTLPDILTFNLDIVIIGINPGLMAAYKGHHYPGPGNHFWKCLFMSGLSEVQLNHMDDHTLPGKYGIGFTNMVERTTPGSKDLSSKEFREGGRILVQKLQKYQPRIAVFNGKCIYEIFSKEVFGVKVKNLEFGLQPHKIPDTETLCYVMPSSSARCAQFPRAQDKVHYYIKLKDLRDQLKGIERNMDVQEAQYTFDLQLAQEDAKKMAVKEEKYDPGYEAAYGGAYGENPCSSEPCGFSSNGLIESVELRGESAFSGIPNGQWMTQSFTDQIPSFSNHCGTQEQEEESHA [V311A],decreasing interaction strength
7,MEAENAGSYSLQQAQAFYTFPFQQLMAEAPNMAVVNEQQMPEEVPAPAPAQEPVQEAPKGRKRKPRTTEPKQPVEPKKPVESKKSGKSAKSKEKQEKITDTFKVKRKVDRFNGVSEAELLTKTLPDILTFNLDIVIIGINPGLMAAYKGHHYPGPGNHFWKCLFMSGLSEVQLNHMDDHTLPGKYGIGFTNMVERTTPGSKDLSSKEFREGGRILVQKLQKYQPRIAVFNGKCIYEIFSKEVFGVKVKNLEFGLQPHKIPDTETLCYVMPSSSARCAQFPRAQDKVHYYIKLKDLRDQLKGIERNMDVQEVQATFDLQLAQEDAKKMAVKEEKYDPGYEAAYGGAYGENPCSSEPCGFSSNGLIESVELRGESAFSGIPNGQWMTQSFTDQIPSFSNHCGTQEQEEESHA [Y313A],disrupting interaction strength
